Experiments:
H3R = H3R (Homo sapiens, UniProt Q9Y5N1); experiment: [3H]NAMH competition radioligand binding on cell homogenates overexpressing H3R; settings: reference H3R ligands
hH3R = hH3R (Homo sapiens, UniProt Q9Y5N1); experiment: Competition binding of non-labeled ligands with trans-[3H]3f on hH3R-expressing cell homogenates

The chains behind the UniProt entries cited, without tags or fusion partners. Where a name states a change or a piece, a line headed by the entry shows the natural chain unless it says otherwise.
UniProt Q9Y5N1: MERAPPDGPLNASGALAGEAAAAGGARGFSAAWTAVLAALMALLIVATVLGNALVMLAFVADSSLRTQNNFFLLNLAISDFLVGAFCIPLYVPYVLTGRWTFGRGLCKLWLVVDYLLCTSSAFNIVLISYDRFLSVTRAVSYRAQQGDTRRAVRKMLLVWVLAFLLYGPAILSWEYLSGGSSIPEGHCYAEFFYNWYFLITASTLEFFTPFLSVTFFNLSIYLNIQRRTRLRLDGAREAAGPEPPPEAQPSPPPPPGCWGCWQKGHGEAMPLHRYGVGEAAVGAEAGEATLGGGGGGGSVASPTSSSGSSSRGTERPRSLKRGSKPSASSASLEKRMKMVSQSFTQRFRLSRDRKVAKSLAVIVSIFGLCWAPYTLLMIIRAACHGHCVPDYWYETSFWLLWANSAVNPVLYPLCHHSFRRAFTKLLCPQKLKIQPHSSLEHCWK

`NC(=NCc1ccc(Cl)cc1)SCCCc1cnc[nH]1` [clobenpropit, reference compound] was tested, and the “pKi in competition with [3H]NAMH” value (H3R) was 9.3 ± 0.1 and the Ki (hH3R) was 0.631 nM.

Source: article PMC12257542, “A Radiolabeled Photoswitchable G Protein-Coupled Receptor Antagonist Enlightens Ligand Binding Kinetics Associated with Photoswitching” (Journal of the American Chemical Society, 2025)
